# Experimental data published in PMC3577830, “Crystal Structure of Silkworm Bombyx mori JHBP in Complex With 2-Methyl-2,4-Pentanediol: Plasticity of JH-Binding Pocket and Ligand-Induced Conformational Change of the Second Cavity in JHBP” (PLoS ONE, 2013).
# The chains behind the UniProt entries cited, without tags or fusion partners.
# UniProt Q9U556, entry or part of it: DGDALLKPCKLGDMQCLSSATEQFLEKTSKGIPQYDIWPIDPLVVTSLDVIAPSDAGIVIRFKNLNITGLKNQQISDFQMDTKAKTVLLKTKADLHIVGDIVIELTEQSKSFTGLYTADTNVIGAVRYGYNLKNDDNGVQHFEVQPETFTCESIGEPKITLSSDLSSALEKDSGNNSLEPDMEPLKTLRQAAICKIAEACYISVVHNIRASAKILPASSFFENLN
# Target: juvenile hormone-binding protein (JHBP) (Bombyx mori, UniProt Q9U556)
# Parameters: gene hJHBP
smiles,measurement,value
"COC(=O)/C=C(\C)CC/C=C(\C)CC[C@H]1OC1(C)C [JH III, 3H-JH III]","radioligand binding (10 nM 3H-JH III, 800 nM JHBP, dextran-coated charcoal)",Binding of 3H-JH III to JHBP was measured in the absence and presence of MPD.
